# PDI inh: inhibitors of human protein disulfide isomerase. P07237. PDI insulin aggregation turbidity, A650, 90 min. inhibition, % at 10 µM. 350,000 compounds, 0.052% hits. AID 588391;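 active = mean inhibition across replicates of 30% or more, whatever share of single replicates reach that level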
# ARNT TACC3 PPI: ARNT/TACC3 interaction disruption | AlphaScreen His-ARNT PAS-B/GST-TACC3 binding, luminescence; TACC3 fragment carries E629A point mutation | inhibition, % at 9.99 µM | Q9Y6A5 | 390,000 compounds, 0.66% hits;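 active = mean inhibition of replicates at least 50% and at least half of replicates each reaching 50%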;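 note: 0% = complete ARNT plus TACC3 wells and 100% = ARNT alone without TACC3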
# UUG fidelity: modulators of yeast start codon fidelity, primary screen, whole organism, S. cerevisiae, single point, plate reader; S. cerevisiae UUG-firefly luciferase reporter, luminescence/redox ratio; activity score, % at 18.7 µM; actives 0.13% (n = 350,000); AID 602363, 2012;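 active = replicate mean at a twofold rise or more, about +100% in these data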;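 also: firefly luciferase made from a UUG start codon reports start codon fidelity; reporter light over untreated wells divided by growth signal over untreated wells; some hits fall short of that in this replicate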
# FGF22 binding: binders of recombinant human FGF22 by thermal shift | Q9HCT0 | SYPRO orange fluorescence; percent of sucrose octasulfate shift, DMSO zero | activity (Tm shift, normalised), % at 9.99 µM | 340,000 compounds, 1.5% hits | AID 651658;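 active = mean Tm shift, scaled 0 neutral to 100 positive control, at about 1.3% or above, every replicate too, limit read from the data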
# ERp5 block: ERp5 (human) disulfide isomerase inhibition. ERp5 insulin aggregation, absorbance 650 nm, 90 min. 350,000 compounds, 0.05% hits. inhibition, % at 9.99 µM. Q15084. AID 651711;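 active = mean replicate inhibition above about 25%, with every replicate also reaching it, limit read from the data, passing the limit was not always enough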
# PglD DTNB: inhibitors of Campylobacter jejuni PglD acetyltransferase; 360,000 compounds, 0.098% hits; AID 602405; purified PglD enzyme, DTNB colorimetric CoA detection; inhibition, % at 12.5 µM; in the data active = inhibition above about 16%, passing the limit was not always enough
# * marks the source's active call; other numbers are inactive results; / = not tested or not shown; ! = a repeat was not active. A selection: hits, their analogues and other compounds. The true share with any hit is near 1.9%.
1) CN1C(=O)c2cc(NC(=O)Cc3ccccc3)ccc2OC[C@H]2O[C@H](CC(=O)NC3CCC3)CC[C@@H]21
2) c1cncc(-c2nc3cc4ccccc4cc3[nH]2)c1
3) Oc1cc(Nc2ccccc2)cc2cccnc12
4) Oc1cccc2cc(Nc3ccccc3)cnc12
5) Oc1cc(-c2cccnc2)cc2cccnc12

assay / compound	1	2	3	4	5
PDI inh	/	9	-6	1	8
ARNT TACC3 PPI	-6	1	66*	/	65*
UUG fidelity	9	-23	-30	-66	-45
FGF22 binding	0	/	0	0	0
ERp5 block	12	-14	3	6	4
PglD DTNB	-2	3	-3	-6	0

6) CN(C)C(=O)C[C@@H]1C[C@@H]2c3cc(NC(=O)Nc4ccccc4)ccc3O[C@@H]2[C@@H](CO)O1
7) CN(C)C(=O)C[C@@H]1C[C@H]2c3cc(NS(C)(=O)=O)ccc3O[C@H]2[C@@H](CO)O1
8) CN(C)C(=O)C[C@@H]1C[C@@H]2c3cc(NS(C)(=O)=O)ccc3O[C@@H]2[C@H](CO)O1
9) CS(=O)(=O)Nc1ccc2c(c1)[C@H]1C[C@@H](CC(=O)O)O[C@@H](CO)[C@H]1O2
10) CS(=O)(=O)Nc1ccc2c(c1)[C@@H]1C[C@H](CC(=O)O)O[C@@H](CO)[C@@H]1O2

assay / compound	6	7	8	9	10
PDI inh	/	/	/	/	/
ARNT TACC3 PPI	-9	-2	-3	/	/
UUG fidelity	43*	-4	-6	/	/
FGF22 binding	0	0	0	/	/
ERp5 block	/	93*	77*	-3	-6
PglD DTNB	-1	1	4	/	/

11) CC1(C)c2ccccc2-c2nc3ccccc3cc2C1N1CCOCC1 (stereo not given)
12) Cc1nnc(SCC(=O)c2cc(C)n(C3CC3)c2C)s1
13) Cc1cc(C(=O)CSc2nn3c(=O)c(C(C)(C)C)nnc3s2)c(C)n1C1CC1
14) COc1ccc(NC(=O)c2ccc(NC(=O)CN3CCN(c4ccccc4OC)CC3)cc2)cc1
15) COC(=O)[C@]1(C)N[C@H](CN(C)S(=O)(=O)c2ccc(OC(F)(F)F)cc2)[C@@H]2C(=O)N(C)C(=O)[C@@H]21

assay / compound	11	12	13	14	15
PDI inh	0	4	2	-4	-3
ARNT TACC3 PPI	-4	8	-8	/	-4
UUG fidelity	/	/	/	-29	1
FGF22 binding	43*	/	1.7*	43*	0
ERp5 block	-3	/	0	-10	34*
PglD DTNB	/	/	/	0	-2

16) CS(=O)(=O)NCCOc1ccc(S(=O)(=O)NCCOc2ccccc2)cc1
17) Cc1cccc(C)c1NS(=O)(=O)c1ccc(OCCNS(C)(=O)=O)cc1
18) CC(=O)N1CC2(C1)[C@H](c1ccc(-c3cccc(F)c3)cc1)[C@@H](CO)N2CC1CCOCC1
19) CC(C)n1cnc2c(NCc3ccccc3)cc(N[C@H](C)CO)cc21
20) CCOCCOc1cc(NCc2ccccc2)c2ncn(C(C)C)c2c1

assay / compound	16	17	18	19	20
PDI inh	5	-2	/	-2	1
ARNT TACC3 PPI	-8	0	/	34*	19*
UUG fidelity	/	/	/	-10	-13
FGF22 binding	0	43*	0	/	0
ERp5 block	-5	-1	-2	/	-4
PglD DTNB	/	/	/	-1	10

21) CCCCOc1cc(NCc2ccccc2)c2ncn(C(C)C)c2c1
22) CCC(CO)Oc1cc(NCc2ccccc2)c2ncn(C(C)C)c2c1 (stereo not given)
23) CCC(CO)Oc1cc(NCc2ccc(O)cc2)c2ncn(C(C)C)c2c1 (stereo not given)
24) O=C(OCc1cccc([N+](=O)[O-])c1)c1cccnc1
25) CC(=O)Nc1ccc(C(=O)OCc2ccc(F)cc2)cc1

assay / compound	21	22	23	24	25
PDI inh	0	6	8	-1	-1
ARNT TACC3 PPI	-1	41*!	/	0	0
UUG fidelity	-9	7	5	-3	/
FGF22 binding	0	-1	0	43*	43*
ERp5 block	1	3	1	-5	1
PglD DTNB	-5	-2	-3	1	/

# An excerpt from above, showing only UUG fidelity and ERp5 block:
No. | SMILES | UUG fidelity | ERp5 block
22 | CCC(CO)Oc1cc(NCc2ccccc2)c2ncn(C(C)C)c2c1 (stereo not given) | 7 | 3
23 | CCC(CO)Oc1cc(NCc2ccc(O)cc2)c2ncn(C(C)C)c2c1 (stereo not given) | 5 | 1

# Other compounds follow:
26) O=C(Cc1ccc([N+](=O)[O-])cc1)Nc1cc(C(F)(F)F)cc(C(F)(F)F)c1
27) O=C(Cc1ccc([N+](=O)[O-])cc1)Nc1cccc(C(F)(F)F)c1
28) O=C(NCc1cccnc1)Nc1cccc(C(F)(F)F)c1
29) O=C(NCCc1cnc[nH]1)Nc1cccc(C(F)(F)F)c1
30) COc1ccc(S(=O)(=O)N(C)C[C@@H]2Oc3ccc(NC(=O)C4CCCCC4)cc3C(=O)N([C@@H](C)CO)C[C@H]2C)cc1

assay / compound	26	27	28	29	30
PDI inh	8	8	-1	4	/
ARNT TACC3 PPI	-4	1	-1	49*	-14
UUG fidelity	1	/	-8	3	12
FGF22 binding	0	44*	0	0	0
ERp5 block	0	4	-15	6	-5
PglD DTNB	2	/	-1	-1	0

# Screening results deposited in PubChem BioAssay by Broad Institute.
